# PMC6541264, “Molecular mechanisms involved in drug-induced liver injury caused by urate-lowering Chinese herbs: A network pharmacology study and biology experiments” (PLoS ONE, 2019)
# System: L-02 cells
# Assay: Biochemical indicators of hepatotoxicity (ALT, AST, LDH, ALP activity) of L-02 cells, without and with p38 inhibitor SB203580
# Type: cell-based, human
# Conditions: Table 5, L-02 supernatant, 24 h, 60μmol/L
# Method: The normal hepatic cell (L02) cell lines were obtained from the National Infrastructure of Cell Line Resources (Chinese Academy of Medical Sciences, Beijing, China), and maintained in Dulbecco’s modified Eagle’s medium (DMEM, 10-013-CVR) supplemented with 10% fetal bovine serum (FBS, Hyclone), 1% penicillin and streptomycin (PS, 100 IU/ml penicillin, 100 μg/ml streptomycin, Mediatech, 30-002-CI). All cells were incubated in a humidified atmosphere at 37°C with 5% CO2.
# To determine how potential liver injury-compounds affected biochemical indicators of L-02 cells, we investigated the activities of AST, ALT, LDH and ALP in cell migration capacity under the different representative compounds conditions (representative compounds group), the inhibitor conditions (inhibitor group), and the negative control. For these experiments, three replicates were made for each concentration of the different representative compounds with liver injury, and each group was established three holes and cultured in 6 times repeatedly. L02 cells were settled into 24-well plate at concentrations of 1.6 × 10^3 per well for 24h and then treated with the concentrations that had been determined by MTT method of the representative candidate liver injury compounds for another 24 h. […]
smiles,measurement,value
COc1ccc2cc1Oc1ccc(cc1)C[C@H]1c3cc(c(OC)cc3CCN1C)Oc1c(OC)c(OC)cc3c1[C@H](C2)N(C)CC3 [Tetrandrine],ALP,16.39±0.81 King's unit /100ml
